Measurements as given in patent EP4840852A1, “DIPHENYLTRIAZINE COMPOUND, PREPARATION METHOD THEREFOR AND USE THEREOF” (dated 2026).
Where two headings read alike, the source gives them in different places.

Experiments:
[1] = test system: rat pulmonary artery rings; assay: High-K+-induced tension of isolated pulmonary artery rings; details: read-out: half-maximal inhibitory concentration (IC50), high-K+-induced vasoconstriction of rat pulmonary arteries; N=5
SD rats [2] = assay: 4-week repeated dose toxicity and toxicokinetic study in rats; details: for NOAEL in rats relative to pharmacologically effective dose: safety margin; for AUC(0-24): after 28 days of repeated dosing at NOAEL 50 mg/kg
SD rats [3] = details: cited from earlier work
SD rats [4] = details: cited from earlier work; for AUC(0-24): after 28 days of repeated dosing at NOAEL 6 mg/kg
SD rats [5] = assay: Acute toxicity study, single oral gavage in rats

Row | Structure (SMILES) | IC50 [1] [µM] | NOAEL in rats relative to pharmacologically effective dose (SD rats [2]) [times] | approximate lethal dose (SD rats [3]) [mg/kg] | non-lethal dose (SD rats [3]) [mg/kg] | AUC(0-24) (SD rats [4]; females) [ng·h/mL] | AUC(0-24) (SD rats [4]; males) [ng·h/mL] | NOAEL (SD rats [4]; rats, comparison value for Selexipag) [mg/kg] | clinical observations (SD rats [5]; 300 mg/kg single oral gavage, not classified as toxic reaction) | body weights of female animals (SD rats [5]; 1000 mg/kg single oral gavage, compared with acclimation period) | clinical observations (SD rats [5]; 1000 mg/kg single oral gavage, one female rat, Day 2, euthanized) | food consumption or gross necropsy findings (SD rats [5]; each dose group (100, 300, 1000 mg/kg)) | severe toxic symptoms (tail blackening, tail sloughing) (SD rats [5]; rats, single oral gavage) | maximum tolerated dose (MTD) (SD rats [5]; single oral gavage in rats) | animal death (SD rats [2]; 50, 150, 500 mg/kg once daily for 4 weeks) | toxicity findings (SD rats [2]; dosing at not less than 500 mg/kg) | AUC(0-24) (SD rats [2]; females) [ng·h/mL] | AUC(0-24) (SD rats [2]; males) [ng·h/mL] | No Observed Adverse Effect Level (NOAEL) (SD rats [2]; oral gavage once daily for 4 weeks, rats) [mg/kg]
1 | CC(C)N(CCCCOCC(=O)NS(C)(=O)=O)c1cnc(-c2ccccc2)c(-c2ccccc2)n1 | 24 | 6 | 500 | 250 | 40 | 10 | 6 |  |  |  |  |  |  |  |  |  |  | 
2 | CC(C)N(CCCCCC(=O)NS(C)(=O)=O)c1nnc(-c2ccccc2)c(-c2ccccc2)n1 | 11.2 | 100 |  |  |  |  |  | two female rats showed red nasal discharge on Day 2 | decreased on Day 2 | loss of righting reflex, cold skin upon touch, ruffled fur, and moribund state | No significant abnormalities | did not induce severe toxic symptoms such as tail blackening or tail sloughing | less than 1000 mg/kg | No animal death was observed | salivation and thyroid enlargement | 7016 | 3784 | 50
